Article PMC7878837, “Generation of Human-Induced Pluripotent Stem Cell-Derived Functional Enterocyte-Like Cells for Pharmacokinetic Studies” (Stem Cell Reports, 2021)

Tested on: BCRP and P-gp

Row | Compound | directional transport (B-to-A vs A-to-B) | effect on directional transport of [3H]-prazosin (20 μM elacridar)
1 | COc1cc2nc(N3CCN(C(=O)c4ccco4)CC3)nc(N)c2cc1OC [[^3H]-prazosin, prazosin] | exceeded its A-to-B transport | 
2 | COc1cc2c(cc1OC)CN(CCc1ccc(NC(=O)c3cccc4c(=O)c5cccc(OC)c5[nH]c34)cc1)CC2 [elacridar] |  | partial inhibition of BCRP and P-gp
